According to article PMC9776037:

How the values were obtained:
[1] = molecular target: α2 portion of the human α2δ1 protein (voltage-sensitive calcium channel subunit) (human); test: localized surface plasmon resonance (LSPR); α2 amide-coupled to gold triangular nanoprisms on glass; sensors incubated with 1 × 10^−16 to 1 × 10^−8 M PLN or PLN domains in PBS pH 7.2; Δλ_LSPR by UV-visible spectroscopy; KD from Hill-Langmuir fit with extrapolated Bmax
[2] = molecular target: α2 portion of the human α2δ1 protein (voltage-sensitive calcium channel subunit) (human); test: localized surface plasmon resonance (LSPR); α2-functionalized sensors incubated overnight with full-length PLN (10 nM) or PLN Dm III-2 (100 nM), then overnight with gabapentin (GBP, 0.33 mg/mL); Δλ_LSPR of the second step
[3] = molecular target: α2 portion of the human α2δ1 protein (voltage-sensitive calcium channel subunit) (human); test: localized surface plasmon resonance (LSPR); α2-functionalized sensors incubated overnight with full-length PLN (10 nM) or PLN Dm III-2 (100 nM), no GBP; Δλ_LSPR

Kd [1] [nM]	Δλ LSPR on adding GBP after PLN [2] [nm]	Δλ LSPR [3] [nm]	Substance
260	–	–	Full-length perlecan (PLN), digested with heparanase and chondroitinase (from UniProt P98160 22-4391) (natural protein)
3.6	-4.1	14.4	Full-length perlecan (PLN), undigested (native form) (from UniProt P98160 22-4391) (natural protein)
